Data set [1] addresses T1, Voltage-gated inwardly rectifying potassium channel KCNH2 (Homo sapiens, UniProt Q12809).
The nature of data set [2]: in vivo. To be noted: mouse, po, 25 mg/kg.
Data set [3] can be described thus: in vivo. As to conditions: mouse, po, 25 mg/kg. The source holds these as a separate data set.
Data set [4] is described as follows: in vivo. To be noted: mouse, po, 25 mg/kg. This is another data set of the same source.
The target in data set [5] is T1, Voltage-gated inwardly rectifying potassium channel KCNH2. This is another data set of the same source.
Data set [6] has as its target Proto-oncogene tyrosine-protein kinase Src (Homo sapiens, UniProt P12931). The data set is classed as ADME.
The conditions of data set [7]: human, plasma.
The conditions of data set [8]: buffer, pH 2.
The conditions of data set [9]: buffer, pH 6.5.
The conditions of data set [10]: mouse, plasma.
A short description of data set [11]: in vivo. To be noted: mouse, po, 10 mg/kg.
Data set [12] is described as follows: in vivo. To be noted: mouse, po, 10 mg/kg. The source holds these as a separate data set.
Data set [13] can be described thus: in vivo. As to conditions: mouse, po, 10 mg/kg. This is another data set of the same source.

By UniProt entry, the sequences of proteins in these tests, tags left out. Where a name states a change or a piece, a line headed by the entry shows the natural chain unless it says otherwise.
UniProt Q12809: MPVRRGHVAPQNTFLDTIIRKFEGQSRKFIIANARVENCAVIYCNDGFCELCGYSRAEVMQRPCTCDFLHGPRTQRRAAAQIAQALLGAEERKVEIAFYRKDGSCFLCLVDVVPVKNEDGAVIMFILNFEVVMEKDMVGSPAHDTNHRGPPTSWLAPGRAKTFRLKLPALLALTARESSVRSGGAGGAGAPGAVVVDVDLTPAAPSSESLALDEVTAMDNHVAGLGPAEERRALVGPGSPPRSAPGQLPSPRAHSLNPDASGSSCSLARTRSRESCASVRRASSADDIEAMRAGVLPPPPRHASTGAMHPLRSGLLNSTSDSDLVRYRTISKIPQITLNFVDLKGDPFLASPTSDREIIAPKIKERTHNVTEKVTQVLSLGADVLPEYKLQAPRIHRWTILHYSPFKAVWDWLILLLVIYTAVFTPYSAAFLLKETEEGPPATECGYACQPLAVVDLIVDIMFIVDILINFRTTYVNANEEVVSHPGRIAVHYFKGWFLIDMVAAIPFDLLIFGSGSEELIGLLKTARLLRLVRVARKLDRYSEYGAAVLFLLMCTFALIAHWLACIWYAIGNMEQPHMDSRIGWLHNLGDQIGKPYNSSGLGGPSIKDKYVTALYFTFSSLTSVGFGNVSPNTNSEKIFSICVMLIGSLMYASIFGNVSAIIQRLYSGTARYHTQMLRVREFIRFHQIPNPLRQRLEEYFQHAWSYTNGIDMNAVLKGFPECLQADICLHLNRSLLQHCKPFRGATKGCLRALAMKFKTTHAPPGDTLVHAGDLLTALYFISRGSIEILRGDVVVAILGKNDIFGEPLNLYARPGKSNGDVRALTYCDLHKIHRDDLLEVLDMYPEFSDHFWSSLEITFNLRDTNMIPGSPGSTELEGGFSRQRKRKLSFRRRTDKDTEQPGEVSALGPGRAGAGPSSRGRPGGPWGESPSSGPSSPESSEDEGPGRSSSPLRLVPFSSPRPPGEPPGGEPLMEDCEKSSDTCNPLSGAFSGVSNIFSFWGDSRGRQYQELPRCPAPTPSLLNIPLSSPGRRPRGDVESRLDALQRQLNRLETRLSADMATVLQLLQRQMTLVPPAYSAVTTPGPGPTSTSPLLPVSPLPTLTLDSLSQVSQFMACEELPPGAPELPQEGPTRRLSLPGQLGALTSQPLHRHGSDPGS
UniProt P12931: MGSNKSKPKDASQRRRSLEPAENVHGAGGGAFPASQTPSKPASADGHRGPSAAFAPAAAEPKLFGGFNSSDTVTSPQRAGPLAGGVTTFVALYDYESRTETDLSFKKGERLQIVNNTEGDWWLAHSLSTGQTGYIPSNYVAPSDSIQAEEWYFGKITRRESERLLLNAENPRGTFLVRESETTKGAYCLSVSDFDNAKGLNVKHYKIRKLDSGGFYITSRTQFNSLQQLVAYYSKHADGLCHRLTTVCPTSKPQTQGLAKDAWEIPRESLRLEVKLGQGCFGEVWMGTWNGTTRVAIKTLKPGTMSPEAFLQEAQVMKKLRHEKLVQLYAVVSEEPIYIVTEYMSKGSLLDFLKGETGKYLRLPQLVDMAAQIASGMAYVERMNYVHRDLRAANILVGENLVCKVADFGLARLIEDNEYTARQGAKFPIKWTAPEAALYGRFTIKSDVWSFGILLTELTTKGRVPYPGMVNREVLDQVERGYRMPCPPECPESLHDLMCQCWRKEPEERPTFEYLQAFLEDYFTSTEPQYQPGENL

In brackets after ≈: the same amount, converted by molar mass. Bounds are passed on as bounds.

In general, IC50 refers to the concentration that inhibits the measured activity by half. Low values mean higher potency, high ones lower potency. What is called half-life is the time in which the quantity being followed falls by half. The low end stands for rapid decline, the high end for slow decline. The term Cmax denotes the peak of the concentration-time curve. The Tmax is the time at which the peak concentration occurs. One may read the solubility as the concentration that dissolves in the medium under given conditions. Higher therefore signals a readily soluble substance.

In data set [1], `CCOc1ccc2cc(-c3nn(C(C)(C)CO)c(N)c3C(N)=O)cnc2c1` registered an IC50 of over 30 µM. The compound also yielded a half-life in the data set “in vivo [2]” of 2.29 h. Besides, the Cmax in “in vivo [3]” worked out at 133 µM. Moreover, in “in vivo [4]”, the Tmax is 1.33 h.
For the compound `CC(C)(CO)n1nc(-c2ccc3cc(OC4CC4)ccc3c2)c(C(N)=O)c1N`, the IC50 was over 30 µM in data set [5] and 30 µM in data set [1]. In “in vivo [2]”, this compound came in with a half-life of 2.67 h. Besides, in “in vivo [3]”, the Cmax was 79.2 µM. In “in vivo [4]”, the Tmax is 3 h.
With `CC(C)(CCO)n1nc(-c2cnc3cc(OC4CC4)ccc3c2)c(C(N)=O)c1N`, the IC50 in [1] is over 30 µM.
On the same count and under the same terms, with `CCOc1ccc2cc(-c3nn(CC(C)(C)CO)c(N)c3C(N)=O)cnc2c1` the figure was over 30 µM.
As to `CCOc1ccc2cc(-c3nn(C(C)CCO)c(N)c3C(N)=O)ccc2n1` (stereo not drawn), the values for the IC50 in data set [6] and in [1] were 5.4 µM and over 30 µM, respectively.
In the case of `CCOc1ccc2cc(-c3nn(C(C)(C)CO)c(N)c3C(N)=O)ccc2n1`, the results for the IC50 in data set [5] and in data set [1] were over 21.5 µM and over 30 µM, respectively. Further, the half-life in the data set “in vivo [2]” stood at 2.73 h. Besides, in the data set “in vivo [3]”, the Cmax is 38.6 µM. In addition, in the data set “in vivo [4]”, the Tmax was 1.17 h.
With `CCOc1ccc2cc(-c3nn(C(C)(C)CCO)c(N)c3C(N)=O)ccc2c1`, the half-life in “in vivo [2]” is 0.352 h. Further, the Tmax in the data set “in vivo [4]” is 0.5 h.
Regarding `CCOc1ccc2cc(-c3nn(C(C)CCO)c(N)c3C(N)=O)ccc2c1` (stereo not drawn), in data set [1], the IC50 was over 30 µM. In the data set “in vivo [2]”, this compound showed a half-life of 5.92 h. Besides, the concentration in “in vivo [3]” peaked (Cmax) at 10 µM. Moreover, in “in vivo [4]”, the Tmax was 0.667 h.
As to `C#CCOc1ccc2cc(-c3nn(C(C)(C)C)c(N)c3C(N)=O)ccc2c1`, the IC50 in [6] was over 10 µM; in data set [5], over 22.6 µM. Moreover, the PPB in data set [7] is reported as 99%; in [10], 88%. Further, the values for the solubility in data set [8] and in data set [9] were 17.6 µM (≈ 6.38 µg/mL) and under 10 µM, respectively. In the data set “in vivo [2]”, this compound yielded a half-life of 4.83 h. Moreover, the highest level in “in vivo [3]” (Cmax) was 16.9 µM. Moreover, the Tmax in “in vivo [4]” was 2.67 h.
Compound `CC(CCO)n1nc(-c2ccc3cc(OC4CC4)ccc3c2)c(C(N)=O)c1N` (stereo not drawn) registered an IC50 in data set [1] of over 30 µM. Moreover, the half-life in the data set “in vivo [2]” is 2.24 h. This compound came in with a peak concentration (Cmax) in the data set “in vivo [3]” of 15.4 µM. Moreover, the Tmax in the data set “in vivo [4]” was 0.5 h.
With `CC(C)(C)n1nc(-c2ccc3cc(OC4CC4)ccc3c2)c(C(N)=O)c1N`, the IC50 in data set [5] is over 17 µM; in [1], 27 µM. In addition, in “in vivo [11]”, the half-life was 8.03 h. The same compound registered a Cmax in “in vivo [12]” of 12.9 µM. In addition, the Tmax in “in vivo [13]” is 3 h.
In data set [1], `CC(C)(CO)n1nc(-c2cnc3cc(OC4CC4)ccc3c2)c(C(N)=O)c1N` returned an IC50 of over 30 µM.
Turning to `CCOc1ccc2cc(-c3nn(C(C)(C)CCO)c(N)c3C(N)=O)cnc2c1`, in [1], the IC50 is over 30 µM.
Turning to `CCOc1ccc2cc(-c3nn(C(C)(C)CO)c(N)c3C(N)=O)ccc2c1`, the IC50 in data set [1] is over 30 µM. Besides, the PPB in data set [7] is 97%; in data set [10], 91%. In “in vivo [2]”, this compound had a half-life of 3.52 h. In addition, in “in vivo [3]”, the Cmax was 24 µM. Also, in the data set “in vivo [4]”, the Tmax is 1.5 h.
For the compound `CCOc1ccc2cc(-c3nn(CC(C)(C)CO)c(N)c3C(N)=O)ccc2n1`, the results for the solubility in [8] and in [9] were over 50 µM and over 100 µM, respectively. In “in vivo [11]”, this compound showed a half-life of 0.105 h. Moreover, the Tmax in the data set “in vivo [13]” was 0.833 h.
The compound `CCOc1ccc2cc(-c3nn(CC4CC4)c(N)c3C(N)=O)ccc2c1` showed an IC50 in [1] of 15.7 µM. The solubility in data set [8] amounted to 50.6 µM (≈ 17.7 µg/mL); in data set [9] it was 7.4 µM (≈ 2.59 µg/mL). Further, in the data set “in vivo [2]”, the half-life was 12.6 h. This compound also displayed a maximum concentration (Cmax) in “in vivo [3]” of 4.2 µM.
Take `CCOc1ccc2cc(-c3nn(CC(C)(C)CO)c(N)c3C(N)=O)ccc2c1`: the IC50 in data set [5] was over 8.6 µM; in data set [1], 30 µM. This compound also returned a half-life in the data set “in vivo [2]” of 3.45 h. This compound also gave a Cmax in the data set “in vivo [3]” of 3.1 µM. Besides, the Tmax in the data set “in vivo [4]” was 0.833 h.
With `CCOc1ccc2cc(-c3nn(C(C)(C)CCO)c(N)c3C(N)=O)ccc2n1`, the IC50 in data set [6] was over 10 µM; in data set [1], over 30 µM. Also, the solubility in data set [8] and in [9] was over 50 µM throughout. Further, the half-life in the data set “in vivo [2]” was 6.71 h. Also, the peak level in “in vivo [3]” (Cmax) was 2.8 µM.
On to `CC(C)(CO)n1nc(-c2ccc3nc(OC4CC4)ccc3c2)c(C(N)=O)c1N`, for which the values for the IC50 in data set [6] and in [1] were over 10 µM and over 30 µM, respectively. Further, the PPB in data set [7] is 95%; in data set [10], 85%. Further, the solubility in data set [8] and in [9] was over 100 µM throughout. Moreover, the half-life in “in vivo [2]” was 0.833 h. In addition, the peak level in “in vivo [3]” (Cmax) was 13.8 µM. For the same compound, the Tmax in “in vivo [4]” was 1.33 h.
In [1], `CCOc1ccc2cc(-c3nn(C(C)CCO)c(N)c3C(N)=O)cnc2c1` (stereo not drawn) had an IC50 of over 30 µM. This compound returned a half-life in “in vivo [11]” of 2 h. Besides, the concentration in the data set “in vivo [12]” peaked (Cmax) at 2.7 µM. For the same compound, the Tmax in the data set “in vivo [13]” was 0.5 h.

(Values after ChEMBL document CHEMBL4673226, “Development of 5-Aminopyrazole-4-carboxamide-based Bumped-Kinase Inhibitors for Cryptosporidiosis Therapy” (J Med Chem, 2019).)
